Measurements from US20150141489.

Target: recombinant GST-S6

B1: T7-tagged S6K1 Iso-1 K123A (kinase dead) (protein)
chain: MRRRRRRDGFYPAPDFRDREAEDMAGVFDIDLDQPEDAGSEDELEEGGQLNESMDHGGVGPYELGMEHCEKFEISETSVNRGPEKIRPECFELLRVLGKGGYGKVFQVRKVTGANTGKIFAMAVLKKAMIVRNAKDTAHTKAERNILEEVKHPFIVDLIYAFQTGGKLYLILEYLSGGELFMQLEREGIFMEDTACFYLAEISMALGHLHQKGIIYRDLKPENIMLNHQGHVKLTDFGLCKESIHDGTVTHTFCGTIEYMAPEILMRSGHNRAVDWWSLGALMYDMLTGAPPFTGENRKKTIDKILKCKLNLPPYLTQEARDLLKKLLKRNAASRLGAGPGDAGEVQAHPFFRHINWEELLARKVEPPFKPLLQSEEDVSQFDSKFTRQTPVDSPDDSTLSESANQVFLGFTYVAPSVLESVKEKFSFEPKIRSPRRFIGSPRTPVSPVKFSPGDFWGRGASASTANPQTPVEYPMETSGIEQMDVTMSGEASAPLPIRQPNSGPYKKQAFPMISKRPEHLRMNL
**Q.** Which “in vitro kinase assay (phospho-S6 S240-244 blot)” value does the source give for B1 here?
**A.** The value was “have no kinase activity”.
